Sequences of proteins named here, by UniProt entry; tags and fusion partners are left off.
UniProt O60760, whole entry: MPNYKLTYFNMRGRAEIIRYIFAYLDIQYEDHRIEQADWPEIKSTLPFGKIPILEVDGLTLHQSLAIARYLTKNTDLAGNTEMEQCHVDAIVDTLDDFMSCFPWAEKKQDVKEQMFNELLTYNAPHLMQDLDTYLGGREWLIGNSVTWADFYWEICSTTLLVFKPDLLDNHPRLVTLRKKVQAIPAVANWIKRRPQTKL

According to patent publication US8258130B2 (Sanofi, priority 2007, dated 2012):

Biological target: human h-PGDS (Homo sapiens, UniProt O60760)
Assay: Enzyme Immunoassay (EIA) method, inhibition of hematopoietic PGD2 synthase
Settings: EIA assay, PGD2 formed from PGH2 by human h-PGDS
Procedure: Assay 2: Enzyme Immunoassay (EIA) Method
• a. Preparation of 0.1M K2HPO4/KH2PO4 buffer (pH 7.4) • Prepare 0.1 M KH2PO4 from 1M KH2PO4 (Sigma, Cat# P-8709) • Prepare 0.1 M K2HPO4 from powder of K2HPO4 (Fisher, BP363-500) • Mix 0.1 M K2HPO4 with 0.1 M KH2PO4 to adjust pH to 7.4. • b. Preparation of 0.5% γ-globulin • Add 0.1 g of γ-globulin (Sigma, Cat# G-5009) to 20 mL 0.1 M K2HPO4/KH2PO4 buffer (pH 7.4) and make 1-mL/vial aliquots and store in −80° C. • c. Preparation of 100 mM GSH • Add 307 mg of GSH (Sigma, Cat# G-6529) to 10 mL 0.1 M K2HPO4/KH2PO4 buffer (pH 7.4) and store at −80° C. • d. Preparation of Reaction buffer: • 198 mL of 0.1M K2HPO4/KH2PO4 buffer (pH 7.4) • 2 mM GSH—Prepared from 100 mM GSH • 0.4 g Glycerol • 2 mL of 0.5% γ-globulin • Add 0.4 g of glycerol and 2 mL of 0.5% γ-globulin to 198 mL of 0.1 M K2HPO4/KH2PO4 • buffer (pH7.4). • Add 0.4 mL of 100 mM GSH to 19.6 mL reaction buffer before the assay (enough for two 96-well plates). • e. […]
• 2. […] Total PGD2 levels (pg/mL) were determined in the samples by EIA kits (Caymen Chemical, Catalog No. 500151) Calculate Amount of PGD2 as Below • Calculated % Positive control according to the equation below; % Positive control=(Compound value−Negative control)/(Positive value−Negative control value)×100. […]

CN(NC(=O)c1cnc(-c2ccccc2)nc1)c1ccc(C(F)(F)F)cn1
pIC50: 7.00

pIC50: −log10 of the molar value.
